# AlphaSeq binding of Ab-95 light chain variants to a spike HR2 peptide

The measurements come from Engelhart et al. 2022 (doi:10.1038/s41597-022-01779-4) through the FLAb antibody collection.

The target is the same throughout: PDVDLGDISGINAS, from the HR2 region of SARS-CoV-2 spike.

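The parent was found by panning a naive human phage display library on the peptide. Library AAYL52 holds single substitutions and randomly drawn double and triple substitutions in the CDRs. AlphaSeq pools MATa yeast showing the antibodies with MATalpha yeast showing the peptide. After mating in shaken culture at 30 °C for 16 h, diploids were selected and their barcode pairs sequenced. The ratio of observed to expected reads was calibrated, replicate by replicate, on BCL2-family standards whose Kd was known from biolayer interferometry. Each pool was mated in three replicate cultures.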

The variants keep the heavy chain, the linker and the frameworks of Ab-95 (scFv order VH, a 15-residue (Gly4Ser)3 linker, VL).
VH: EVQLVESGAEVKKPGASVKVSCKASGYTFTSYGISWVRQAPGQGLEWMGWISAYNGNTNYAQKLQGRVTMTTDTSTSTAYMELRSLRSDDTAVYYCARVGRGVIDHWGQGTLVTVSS
VL: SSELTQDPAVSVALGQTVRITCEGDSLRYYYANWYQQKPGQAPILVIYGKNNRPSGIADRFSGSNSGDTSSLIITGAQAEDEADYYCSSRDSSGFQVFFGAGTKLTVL

Each variant is given by its three light chain CDRs, as the data file delimits them; those of the parent are EGDSLRYYYAN, GKNNRPS, SSRDSSGFQVF.
Every variant below is changed at G94 of the VL (sequential numbering).
Affinities are written as log10 Kd with Kd in nM; a lower number is a better binder.
The mean shown is taken over the replicates in which the pair was detected.
"nd" marks a missing value. The strain was present, yet no cells mated with the target were sequenced in that replicate, which points to weak or no binding.
Entries are sorted by rising average, undetected variants last.

* EGDSLRYAYAN | GKNNAPS | SSRDSSSFQVF -> 2.40, 2.41, 2.33 (mean 2.38; controls 2 of 9)
* EGDSLRYYYAN | GKNNRPS | ESRDTSYFQVF -> 2.66, 2.70, 1.85 (mean 2.40; controls 6 of 9)
* EGDSLRYYYAN | GKNNRPS | SSRDSSQFQVF -> 2.65, 2.52, 2.76 (mean 2.64; controls 2 of 9)
* EGDSLRYYYAN | GLNNRPS | SSRDSSFVQVF -> 2.30, 2.65, 3.32 (mean 2.76; controls 2 of 9)
* EGDSLRYYYAN | GKNNRAS | SSRDSSYFWVF -> 2.71, 2.95, 2.63 (mean 2.76; controls 3 of 9)
* EGDSLAYYYAN | GKNNRPS | SSRDSSDFQVF -> 2.23, 2.61, 3.56 (mean 2.80; controls 3 of 9)
* EGDSLRYYYAN | GKNNRPS | YSRASSHFQVF -> 2.08, 3.37, 3.11 (mean 2.85; controls 2 of 9)
* EGDSLRYYRAR | GKNNRPS | SSRDSSAFQVF -> nd, 2.96, nd (controls 1 of 9)
* EGDSLRYYYAN | GRNNRPS | GSRDSSYFQVF -> 3.02, 2.84, 3.13 (mean 3.00; controls 1 of 9)
* EGKSLRYYYAN | GKNNRPS | SSRDSSTFQVA -> 3.07, nd, nd (controls 3 of 9)
* EGDSLRYYYAN | GKNNRPS | SSRDSSTGWVF -> 3.29, 3.10, 2.94 (mean 3.11; controls 4 of 9)
* EGDSLRYYYAN | GKNNRPS | SSRHSSFFQVT -> 3.31, 3.32, 3.40 (mean 3.34; controls 3 of 9)
* EGDSLRYYYAN | EKNNRPS | SSRDSSIFQVF -> 3.40, nd, nd (controls 1 of 9)
* EGDSLRYYYAN | GLNNRPS | SSRDSSIFQVI -> 3.70, 3.53, 3.09 (mean 3.44; controls 1 of 9)
* EGDSLRYYYAN | GKNLLPS | SSRDSSHFQVF -> 4.26, nd, 2.64 (mean 3.45; controls 2 of 9)
* EGDVLRYYYAN | GKNNRFS | SSRDSSTFQVF -> nd, nd, 3.46 (controls 3 of 9)
* EMDSLRYYYAN | GKNNRPS | SSRDSSFYQVF -> 3.50, nd, nd (controls 2 of 9)
* EGDSDRYYYAN | GKNNRPS | SSRDSSHFQVF -> 3.56, nd, nd (controls 2 of 9)
* EGDSLRYYYAN | GKNDRES | SSRDSSNFQVF -> 3.57, 3.56, nd (mean 3.57; controls 4 of 9)
* RGDSLRYHYAN | GKNNRPS | SSRDSSRFQVF -> 3.27, 4.12, 3.41 (mean 3.60; controls 6 of 9)
* EGDSIRYYYAN | GKNNRPS | SSRDSSNFQFF -> 3.65, nd, nd (controls 3 of 9)
* EGDSLRVWYAN | GKNNRPS | SSRDSSMFQVF -> 3.48, 3.90, nd (mean 3.69; controls 2 of 9)
* EGDSLRYYYAN | GKNNTPS | SSRDSSFFQFF -> 3.91, nd, nd (controls 0 of 9)
* NGDSLRYYYAN | GKHNRPS | SSRDSSPFQVF -> 4.22, 3.46, 4.61 (mean 4.10; controls 5 of 9)
* EGDSLRYYYAN | GNNNRNS | SSRDSSAFQVF -> nd, 4.06, 4.16 (mean 4.11; controls 5 of 9)
* EGKELRYYYAN | GKNNRPS | SSRDSSIFQVF -> nd, 4.15, nd (controls 1 of 9)
* EGDSLRYFYAN | RKNNRPS | SSRDSSVFQVF -> 4.41, 4.44, nd (mean 4.42; controls 2 of 9)
* EGDSLRYYYAN | GKNNRKS | SSRDSSDFQHF -> 5.39, nd, 4.19 (mean 4.79; controls 2 of 9)
* EGDSLRYYYCN | KKNNRPS | SSRDSSWFQVF -> nd, nd, nd (controls 3 of 9)
* EGDSLRYYYAN | GKNNRWS | SSRTSSFFQVF -> nd, nd, nd (controls 2 of 9)
* EKDSLRYYYAN | GKNNRLS | SSRDSSAFQVF -> nd, nd, nd (controls 1 of 9)
* YGDSLRYYYCN | GKNNRPS | SSRDSSNFQVF -> nd, nd, nd (controls 1 of 9)
* EGDSLRYYYAN | GLNNRPS | SSDDSSHFQVF -> nd, nd, nd (controls 2 of 9)
* EGDILRYYYAN | GKNDRPS | SSRDSSCFQVF -> nd, nd, nd (controls 0 of 9)
* EGDSLRYYYAK | GKNNRPS | SSIDSSKFQVF -> nd, nd, nd (controls 1 of 9)
* EGDVLRYYYAN | GKNNCPS | SSRDSSWFQVF -> nd, nd, nd (controls 0 of 9)

Excerpt, the first 3 entries:

{"CDR-L1": "EGDSLRYAYAN", "CDR-L2": "GKNNAPS", "CDR-L3": "SSRDSSSFQVF", "log10 Kd, replicates": "2.40, 2.41, 2.33", "mean log10 Kd (nM)": "2.38", "signal with controls": "2 of 9"}
{"CDR-L1": "EGDSLRYYYAN", "CDR-L2": "GKNNRPS", "CDR-L3": "ESRDTSYFQVF", "log10 Kd, replicates": "2.66, 2.70, 1.85", "mean log10 Kd (nM)": "2.40", "signal with controls": "6 of 9"}
{"CDR-L1": "EGDSLRYYYAN", "CDR-L2": "GKNNRPS", "CDR-L3": "SSRDSSQFQVF", "log10 Kd, replicates": "2.65, 2.52, 2.76", "mean log10 Kd (nM)": "2.64", "signal with controls": "2 of 9"}

Nonspecific signal, from three strains lacking the peptide, appeared in 28% of pairings of library AAYL52, centred on 3.91 (5% of these signals below 2.90); values are not corrected for it. For each scFv, signals with the empty controls are counted beside the result.
For reference, the parent read 2.31 as the reference entry and 2.25 as a member of this library.